These results are taken from patent US5576436A, “Fluorescent ligands” (Pharmaceutical Discovery Corporation, priority 1994, dated 1996).

Where two headings read alike, the source gives them in different places.

For one test, the system named is kappa1 opioid receptor. In words: Radioligand ([^3 H]U69,593) binding, kappa1 opioid receptor. The note with it: read-out: Radiolig. Kd:Ki; Table I.
The subject of a further test is Kappa 1. In words: Fluorescent ligand binding, kappa1 opioid receptor.

Regarding `CN(C(=O)Cc1cc(Cl)c(Cl)cc1NC(=O)CCCNC(=O)c1ccc2c(c1)C(=O)OC21c2ccc(O)cc2Oc2cc(O)ccc21)[C@H]1CCCC[C@@H]1N1CCCC1`, the inhibitory constant (Ki) – broadly, a dissociation constant, usually derived from enzyme kinetics or from competition with a known ligand – with kappa1 opioid receptor was 0.2 µM. In the test on Kappa 1 (Table I, density of binding of the ligand), this compound yielded a Bmax of 0.04 pmol/mg prot. Also, the Kd in the test with Kappa 1 (read-out: Fluores. Kd, Table I, centrifugation) was found to be 0.01 µM; in the test on Kappa 1 (read-out: affinity constant (K) as determined by direct fluorescence measurement, Example 1, binding to receptor in tissue), 0.01 µM.
